# Ab-95 light chain CDR variants: yeast mating affinities

Source: Engelhart et al. 2022 (doi:10.1038/s41597-022-01779-4), MIT Lincoln Laboratory and A-Alpha Bio; data file from the FLAb repository.

The target is the same throughout: PDVDLGDISGINAS, from the HR2 region of SARS-CoV-2 spike.

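The parent was found by panning a naive human phage display library on the peptide. Library AAYL52 holds single substitutions and randomly drawn double and triple substitutions in the CDRs. The scFvs were displayed on barcoded MATa yeast, the peptide on MATalpha yeast. After mating in shaken culture at 30 °C for 16 h, diploids were selected and their barcode pairs sequenced. Read counts were normalised to the haploid input and turned into Kd by a linear fit to BCL2-family pairs of known affinity, for each replicate. Each pool was mated in three replicate cultures.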

The variants keep the heavy chain, the linker and the frameworks of Ab-95 (scFv order VH, a 15-residue (Gly4Ser)3 linker, VL).
VH: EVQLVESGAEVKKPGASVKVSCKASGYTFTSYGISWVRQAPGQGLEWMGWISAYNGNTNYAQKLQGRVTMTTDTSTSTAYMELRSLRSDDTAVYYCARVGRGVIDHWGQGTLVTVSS
VL: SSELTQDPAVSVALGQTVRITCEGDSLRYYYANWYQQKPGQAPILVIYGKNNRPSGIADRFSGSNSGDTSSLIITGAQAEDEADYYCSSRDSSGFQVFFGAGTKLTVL

The parent's light chain CDRs are EGDSLRYYYAN, GKNNRPS, SSRDSSGFQVF; each variant's own CDRs replace them letter for letter. The read-out is the apparent dissociation constant on a log10 scale (nM): the lower, the stronger. Replicates are averaged; those with no signal do not enter the mean. A pair that was not seen in any replicate is written "not detected"; this usually means weak binding, but a binder can also be missed. Empty control strains, which show no peptide, gave a signal in 28% of pairings with library AAYL52; the median was 3.91 and 95% of these signals were weaker than 2.90. No background was subtracted. For reference, the parent read 2.31 as the reference entry and 2.25 as a member of this library.

mean log10 Kd (nM) | seen in | CDR-L1 | CDR-L2 | CDR-L3
4.13 | 3 of 3 | EVDSLRYYYAN | GKNNRPR | SSWDSSGFQVF
4.30 | 2 of 3 | EGDSLRYYYAY | GKNNRPS | SSRDSSGGVVF
3.71 | 1 of 3 | EGDSLRYYYAN | YKNNRPS | SSRGSGGFQVF
not detected | 0 of 3 | EEDSLRYYYAN | GKNNRPS | SSRDYSGFLVF
4.19 | 1 of 3 | EGNSLRYYYAN | CVNNRPS | SSRDSSGFQVF
not detected | 0 of 3 | EGDSLRYYYAN | GKINQPS | SSRDSSGFQKF
3.60 | 1 of 3 | EDDSLRYYYAN | GKNNRPS | LSRDSSNFQVF
3.83 | 2 of 3 | SGDSLRYYYAN | GKNNPPS | RSRDSSGFQVF
3.89 | 2 of 3 | EGVSCRMYYAN | GKNNRPS | SSRDSSGFQVF
not detected | 0 of 3 | SGDSVRYYYAN | DKNNRPS | SSRDSSGFQVF
4.54 | 2 of 3 | EGDSLKWYYYN | GKNNRPS | SSRDSSGFQVF
0.81 | 3 of 3 | EGDSLRYYDAN | GKNNRPS | SSRDNSGFQVT
2.71 | 3 of 3 | EGDSLDRYYAN | GKNNRPS | SSRDLSGFQVF
4.02 | 1 of 3 | EGDSLRYYYAN | PKNNRPS | SSRDSSGFIVF
2.75 | 3 of 3 | EGDSLRYYYAN | GKNLRPV | SSRDLSGFQVF
2.30 | 3 of 3 | EGDYLRHYYAN | GKNNRPV | SSRDSSGFQVF
3.89 | 2 of 3 | EIDSLRYYYAN | GKNNRPS | SSRDSYIFQVF
3.96 | 1 of 3 | QGDSLRYTYAN | GKNNRPS | SSRDSSGFQAF
2.61 | 3 of 3 | VGDSLRYYYAN | GKHNRPS | SSRDSSGFQVF
2.23 | 2 of 3 | DGDSLRYYKAN | GKNNRPS | SSRDSSGWQVF
not detected | 0 of 3 | LGDSPRYYYAN | GKNNRRS | SSRDSSGFQVF
3.13 | 1 of 3 | EGDSLREYYAN | GKNNRPS | SSRDSKGWQVF
2.01 | 3 of 3 | EGDSLRYWQAN | DKNNRPS | SSRDSSGFQVF
not detected | 0 of 3 | EVDQLRYFYAN | GKNNRPS | SSRDSSGFQVF
2.73 | 3 of 3 | EGDSLLYYYAN | GKNNRNS | SSRDSSGFQGF
4.39 | 3 of 3 | EGELLRYYYAN | GKNNRPS | SSRDSSGFQYF
2.36 | 2 of 3 | NGDSLRYYYAN | GKNNRPS | SSRDSPGFQVD
4.40 | 3 of 3 | EGDSLRYYYYN | GKNNRPS | SSRDSSGAQVH
4.74 | 2 of 3 | EGDSLRYYYAN | GEANRRS | SSRDSSGFQVF
3.11 | 2 of 3 | EGDQLRYYYVN | VKNNRPS | SSRDSSGFQVF
4.25 | 1 of 3 | EQDSLRYYYGN | GKNNRAS | SSRDSSGFQVF
4.33 | 1 of 3 | EGDSLRVYYAN | GKNNRLS | SSRDSSGFQQF
3.71 | 1 of 3 | EADSLRYYYSN | GKNNRIS | SSRDSSGFQVF
4.21 | 1 of 3 | DVDSLRYYYAN | GKNNRSS | SSRDSSGFQVF
3.64 | 3 of 3 | KGDSKRYYYAN | GKNNRPS | SSRDHSGFQVF
4.26 | 2 of 3 | EGISLRYYYAN | KKNNRPS | SSRDSSFFQVF
3.93 | 2 of 3 | EGDSLRYYYAN | GKNNRVS | SSRDSSGFQTM
4.85 | 1 of 3 | PGDSLRYYYAN | TKNNRPS | SKRDSSGFQVF
not detected | 0 of 3 | EGDSLAIYYAN | GKNNRPS | SSRASSGFQVF
5.24 | 2 of 3 | PGDSLRYWYAN | GKNNRPS | SSRDSSKFQVF
3.88 | 1 of 3 | EGDQYRYYYAN | GKNNRPS | SSRDSSGFQNF
2.51 | 3 of 3 | EGDSLRYKYAN | GKNNRYS | SSRDSSGFQVR
0.88 | 3 of 3 | EGDSLRYNYAN | GHNVRPS | SSRDSSGFQVF
3.32 | 1 of 3 | EGDSLRYYYAN | GKNNRPC | SSADSSAFQVF
4.55 | 1 of 3 | EGDSLRTYYAH | GKNNYPS | SSRDSSGFQVF
3.54 | 2 of 3 | EGDSLRYYYAN | GKKNRPS | SSPDSSGQQVF
3.14 | 2 of 3 | EGDSTRYYYAN | GKNNRPS | QSRDSFGFQVF
3.65 | 3 of 3 | EGDSLRYYYAN | GKNMRPS | HSRDSSGLQVF
2.32 | 3 of 3 | VGDSLRYYYAN | GKNYRPG | SSRDSSGFQVF
3.63 | 2 of 3 | ENDSLRYYYAN | GKNNRPY | STRDSSGFQVF
3.68 | 3 of 3 | EGDSMRYYYAN | GKNNRPS | SSRFSSGFQTF
4.03 | 2 of 3 | EGDSLRYYYAN | GKNNRPS | SSVDSSGGEVF
2.85 | 3 of 3 | EWDSLRYPYAN | GKNNRPS | SSRDSSGFQVF
5.17 | 1 of 3 | EGDSLRYYYAN | GKNCRPS | SQTDSSGFQVF
not detected | 0 of 3 | EGDSLRYYYAN | GKNNRES | NSRDSSGFQQF
5.64 | 1 of 3 | EGDSLRYIYAP | GKNNRPS | SSRDSSAFQVF
3.64 | 1 of 3 | EGDSLRYYYAN | IGNNRPS | SSDDSSGFQVF
3.69 | 2 of 3 | EGDSLDYYYAN | GKNNHPS | SSRDSSGFVVF
not detected | 0 of 3 | EGWSLRYYYAN | GKNNMPS | SSRDSYGFQVF

Excerpt, the first 9 entries:

CDR-L1 | CDR-L2 | CDR-L3 | mean log10 Kd (nM) | seen in
EVDSLRYYYAN | GKNNRPR | SSWDSSGFQVF | 4.13 | 3 of 3
EGDSLRYYYAY | GKNNRPS | SSRDSSGGVVF | 4.30 | 2 of 3
EGDSLRYYYAN | YKNNRPS | SSRGSGGFQVF | 3.71 | 1 of 3
EEDSLRYYYAN | GKNNRPS | SSRDYSGFLVF | not detected | 0 of 3
EGNSLRYYYAN | CVNNRPS | SSRDSSGFQVF | 4.19 | 1 of 3
EGDSLRYYYAN | GKINQPS | SSRDSSGFQKF | not detected | 0 of 3
EDDSLRYYYAN | GKNNRPS | LSRDSSNFQVF | 3.60 | 1 of 3
SGDSLRYYYAN | GKNNPPS | RSRDSSGFQVF | 3.83 | 2 of 3
EGVSCRMYYAN | GKNNRPS | SSRDSSGFQVF | 3.89 | 2 of 3